Test results taken from ChEMBL document CHEMBL2331145, “Orvinols with mixed kappa/mu opioid receptor agonist activity” (2013).

Chains of the proteins cited; added tags and fusions are not shown.
UniProt P33535, whole entry: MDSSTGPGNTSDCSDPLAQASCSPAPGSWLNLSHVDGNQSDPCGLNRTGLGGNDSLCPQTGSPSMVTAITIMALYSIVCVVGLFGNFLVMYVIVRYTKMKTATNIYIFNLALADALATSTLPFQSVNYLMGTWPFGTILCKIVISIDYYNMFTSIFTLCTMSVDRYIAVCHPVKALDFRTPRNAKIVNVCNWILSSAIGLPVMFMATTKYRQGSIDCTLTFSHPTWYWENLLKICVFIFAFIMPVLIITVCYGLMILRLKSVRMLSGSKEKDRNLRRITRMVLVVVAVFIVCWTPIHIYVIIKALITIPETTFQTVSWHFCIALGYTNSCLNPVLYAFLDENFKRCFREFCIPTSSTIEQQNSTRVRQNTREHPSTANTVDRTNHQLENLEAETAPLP

Target: Mu-type opioid receptor (Rattus norvegicus) (UniProt P33535)
Test: Agonist activity at rat recombinant MOR expressed in rat C6 cells assessed as stimulation of [35S]GTPgammaS binding after 1 hr relative to DAMGO

Structure (SMILES) | Activity
CO[C@]12CC[C@@]3(C[C@@H]1[C@](C)(O)CCC(C)C)[C@H]1Cc4ccc(O)c5c4[C@@]3(CCN1CC1CC1)[C@H]2O5 | 33%
CO[C@]12CC[C@@]3(C[C@@H]1[C@@H](O)CCC1CCCCC1)[C@H]1Cc4ccc(O)c5c4[C@@]3(CCN1CC1CC1)[C@H]2O5 | 34%
CO[C@]12CC[C@@]3(C[C@@H]1[C@](C)(O)CCC1CCCCC1)[C@H]1Cc4ccc(O)c5c4[C@@]3(CCN1CC1CC1)[C@H]2O5 | 43%
CO[C@]12CC[C@@]3(C[C@@H]1[C@H](O)CCC1CCCCC1)[C@H]1Cc4ccc(O)c5c4[C@@]3(CCN1CC1CC1)[C@H]2O5 | 23%
CO[C@]12CC[C@@]3(C[C@@H]1[C@@H](O)CC1CCCC1)[C@H]1Cc4ccc(O)c5c4[C@@]3(CCN1CC1CC1)[C@H]2O5 | 80%
CO[C@]12CC[C@@]3(C[C@@H]1[C@@](C)(O)CCC1CCCCC1)[C@H]1Cc4ccc(O)c5c4[C@@]3(CCN1CC1CC1)[C@H]2O5 | 8.5%
CO[C@]12C=C[C@@]3(C[C@@H]1[C@](C)(O)CCC(C)C)[C@H]1Cc4ccc(O)c5c4[C@@]3(CCN1CC1CC1)[C@H]2O5 | 34%
CO[C@]12CC[C@@]3(C[C@@H]1[C@](C)(O)Cc1ccccc1)[C@H]1Cc4ccc(O)c5c4[C@@]3(CCN1CC1CC1)[C@H]2O5 | 75%
